Earlier results, collected in publication PMC4564290 (Journal of Molecular and Cellular Cardiology, 2015).

Columns and labels:
Conditions in all cases: cited from earlier work
T623A hERG = T623A hERG (Homo sapiens, UniProt Q12809, T623A); design: expressed in transfected cells; host or cells: HEK cells; method as in PMID 11005845
F656A hERG = F656A hERG (Homo sapiens, UniProt Q12809, F656A)
V625A hERG = V625A hERG (Homo sapiens, UniProt Q12809, V625A); design: expressed in transfected cells; host or cells: HEK cells; method as in PMID 11005845
G648A hERG = G648A hERG (Homo sapiens, UniProt Q12809, G648A); design: expressed in transfected cells; host or cells: HEK cells; method as in PMID 11005845
Y652A hERG = Y652A hERG (Homo sapiens, UniProt Q12809, Y652A); design: expressed in transfected cells

SMILES: CS(=O)(=O)Nc1ccc2c(c1)[C@H](O)CC1(CCN([C@@H]3CCc4cc(C#N)ccc4C3)CC1)O2 [MK499]
- Increase in IhERG IC50 with T623A (T623A hERG): 5 fold
- Increase in IhERG IC50 with F656A (F656A hERG): 650 fold
- Increase in IhERG IC50 with V625A (V625A hERG): 50 fold
- IC50 with G648A relative to WT IhERG (G648A hERG): 55 fold
- Increase in IhERG IC50 with Y652A (Y652A hERG): 94 fold
